Source: US9233088B2, “Use of glutamate, glutamate derivatives or metabolites, glutamate analogues or mixtures thereof for the manufacture of a composition for the treatment of osteoporosis” (Protista Biotechnology AB, priority 2001, dated 2016)

Experiments:
piglets = test: Growth (bodyweight) and bone mineralisation during postnatal life of the pig; type: in vivo
Protocol: All piglets suckled sow milk before weaning. After weaning at the age of 28 days piglets were fed ad libitum with a standard mixture Premix prestarter (PP) (Food plant-Motycz, Poland) and free access to water was allowed. Piglets were allotted to three experimental trials:
2—Second group, receiving 0.4 g/kg/b.w. of L-alanyl-L-glutamine (ala-gln), (2 ml solution/kg b.w.)
3—Third group, receiving 0.4 g/kg/b.w. α-keto-glutaric sodium salt, AKG, (2 ml solution /kg b.w.) once a day from the first day to the 35th day of life.
Animal weight gain was monitored every day before oral administration of saline, ala-gln or AKG. At the age of 35 days, piglets were sacrificed, eviscerated and bones were sampled.

turkeys = test: Ulna bone mineral density (DEXA) after fracture and neurectomy in the turkey; type: in vivo; conditions: group A, p<0.01
Text: Turkeys are kept in common cages, 10 turkeys/cage. The turkeys have free access to water and are fed ad libitum.

α-keto-glutaric sodium salt [AKG]
Bodyweight of the piglets (piglets; compared with control group and Ala-Gln group, p>0.01 in comparison to Ala-Gln (so in the source)): more dramatic
Bone mineralisation in piglets (piglets; versus piglets receiving placebo): higher
BMD-Vi (Volumetric index) of the ulna bone, difference compared to the saline treated turkeys (turkeys; left wing control (intact)): 14.8%
BMD-Vi (Volumetric index) of the ulna bone, AKG effect compared to the saline treated turkeys (turkeys; right wing experimental (neurectomized, fracture)): about 35.7%
